The values below are quoted from earlier work in US8802114B2, “Pharmaceutical compositions of iron for oral administration” (priority 2011, dated 2014).

For the data set the following is noted: from MSDS; cited from earlier work.

For the substance “Ferrous Gluconate [Ferrous Gluconate FCC/USP*]”, the “Aqueous solubility (MSDS)” value was 85 g/L (MSDS).
